Here are results for one substance from patent publication US8993614B2, “Substituted pyrrolidine-2-carboxamides” (Hoffmann-La Roche Inc., priority 2012, dated 2015).

The series is described as follows: plasma pharmacokinetics after iv bolus of Compound A, LC-MS/MS.
The mark [1] stands for this setting: Compound A (prodrug) in plasma, 4.37 mg/kg Compound A iv bolus, mean, N=2.

As to “4-{[(2R,3S,4R,5S)-3-(3-Chloro-2-fluoro-phenyl)-4-(4-chloro-2-fluoro-phenyl)-4-cyano-5-(2,2-dimethyl-propyl)-pyrrolidine-2-carbonyl]-amino}-3-methoxy-benzoic acid 1-mPEG-carbonyloxy-ethyl ester (average MW, ˜2695) [Example 37]”, where the note is “Compound A (prodrug) in plasma, 4.37 mg/kg Compound A iv bolus (1 mg/kg active parent), mean, N=2”, the Cmax (as a rule, the highest concentration seen after dosing) came to 142 µg/mL. Under setting [1], the “AUC(0−inf)” value was 108 µg·h/mL, the “AUC(0−tlast)” value was determined as 108 µg·h/mL and the “apparent terminal half-life t½” value is listed as 2.59 h. The Vss (usually a proportionality between amount in the body and measured concentration, not a real space) (Compound A (prodrug), 4.37 mg/kg Compound A iv bolus, mean, N=2) came to 0.0235 L/kg. For the same substance, for the setting “after iv bolus of prodrug”, the “conversion to active drug” value was “Significant conversion” and the recovered into urine result is “only very little”.
